Assay results taken from ChEMBL document CHEMBL5726155, “1,3-thiazol-2-yl substituted benzamides” (2019).

Molecular target: T1, P2X purinoceptor 2 (Homo sapiens, UniProt Q9UBL9)
T1 sequence (Q9UBL9 whole entry): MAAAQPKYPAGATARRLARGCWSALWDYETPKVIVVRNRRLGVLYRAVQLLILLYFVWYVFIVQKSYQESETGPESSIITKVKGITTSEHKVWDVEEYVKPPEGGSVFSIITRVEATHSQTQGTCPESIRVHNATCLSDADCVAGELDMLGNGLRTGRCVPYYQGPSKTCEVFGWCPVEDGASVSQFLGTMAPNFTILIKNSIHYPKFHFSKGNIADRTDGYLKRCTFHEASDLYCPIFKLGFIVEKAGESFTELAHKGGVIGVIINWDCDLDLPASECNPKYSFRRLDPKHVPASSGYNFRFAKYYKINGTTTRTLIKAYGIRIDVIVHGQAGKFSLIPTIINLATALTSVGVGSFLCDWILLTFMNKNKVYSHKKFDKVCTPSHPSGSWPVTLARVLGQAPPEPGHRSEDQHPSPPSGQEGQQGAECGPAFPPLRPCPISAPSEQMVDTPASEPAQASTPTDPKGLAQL

Cc1cnc(-c2cc(O[C@H]3CCOC3)cc(C(=O)NC(C)c3nnc(C(F)(F)F)s3)c2)s1 (single isomer, unassigned; form 1)
IC50: 10000 nM

Cc1cnc(-c2cc(O[C@@H]3CCOC3)cc(C(=O)NC(C)c3nnc(C(F)(F)F)s3)c2)s1 (single isomer, unassigned; form 1)
IC50: 10000 nM

Cc1cnc(-c2cc(OCC3(F)CCCN(C)C3)cc(C(=O)N[C@H](C)c3cnc(C(F)(F)F)nc3)c2)s1 (single isomer, unassigned; form 2)
IC50: 310 nM

Cc1cnc(-c2cc(O[C@@H]3CCOC3)cc(C(=O)NC(C)c3nnc(C(F)(F)F)s3)c2)s1 (single isomer, unassigned; form 2)
IC50: 245 nM

Cc1cnc(-c2cc(O[C@H]3CCOC3)cc(C(=O)NC(C)c3nnc(C(F)(F)F)s3)c2)s1 (single isomer, unassigned; form 2)
IC50: 546 nM
